Reference: US10821115B2, “Compounds that inhibit Mcl-1 protein” (priority 2017, dated 2020)
Like-named read-outs stand apart in the source and are kept apart here.

Sequences of proteins named here, by UniProt entry; tags and fusion partners are left off. Residues count along the entry.
UniProt Q07820, 171-327 limits assumed: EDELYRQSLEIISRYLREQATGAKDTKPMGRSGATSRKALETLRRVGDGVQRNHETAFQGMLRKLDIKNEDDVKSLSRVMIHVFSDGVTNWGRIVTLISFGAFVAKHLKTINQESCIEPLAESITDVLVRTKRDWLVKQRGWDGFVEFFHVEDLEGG

Assays:
[1] = system: human multiple myeloma cell line, OPM-2; test: Cell viability assay (OPM-2 10 FBS), CellTiter-Glo; format: cell-based
[2] = target: recombinant human Mcl-1 (residues 171-327) / Bim interaction (Homo sapiens (Human), UniProt Q07820); conditions: read-out: Mcl-1 HTRF IC50
[3] = system: OPM-2 Luc cells; test: tumor PD model (OPM-2 Luc); format: in vivo; conditions: dosed orally to female athymic nude mice inoculated with OPM-2 Luc cells; compared with Reference Compound 1
[4] = read-out: OPM-2 10% FBS IC50 IP, OPM-2 cells, 16 h incubation
[5] = 0.1 nM Mcl-1(171-327), 0.05 nM biotin-Bim (51-76)
[6] = read-out: OPM-2 10% FBS IC50 IP, OPM-2 cells, 16 h, CellTiter-Glo
[7] = TR-FRET, Mcl-1(171-327) / biotin-Bim (51-76)

SMILES	IC50 [1, 4]	IC50 [2, 5]	other results
C[C@@H]1[C@@H](C)CCCC(O)(CNCCO)[C@@H]2CC[C@H]2CN2C[C@@]3(CCCc4cc(Cl)ccc43)COc3ccc(cc32)C(=O)NS1(=O)=O (stereo partly shown)	17200 nM	3.38 nM	–
COC(=O)CCN1CCN2CCN(C[C@@]3(O)CCC[C@H](C)[C@@H](C)S(=O)(=O)NC(=O)c4ccc5c(c4)N(C[C@@H]4CC[C@H]43)C[C@@]3(CCCc4cc(Cl)ccc43)CO5)CC2C1 (stereo partly shown)	110 nM	–	–
C[C@@H]1CS(=O)(=O)NC(=O)c2ccc3c(c2)N(C[C@@H]2CC[C@H]2[C@](O)(CN2CCN4CCOC[C@@H]4C2)/C=C/[C@@H]1C)C[C@@]1(CCCc2cc(Cl)ccc21)CO3	31 nM	0.047 nM	–
C=CC(=O)N1CCN2CCN(CC3(O)CCC[C@H](C)[C@@H](C)S(=O)(=O)NC(=O)c4ccc5c(c4)N(C[C@@H]4CC[C@H]43)C[C@@]3(CCCc4cc(Cl)ccc43)CO5)CC2C1 (stereo partly shown)	78 nM	0.147 nM	–
COCC[C@@H]1[C@@H](C)C/C=C/[C@@](CN2CCN3CCOC[C@@H]3C2)(OC)[C@@H]2CC[C@H]2CN2C[C@@]3(CCCc4cc(Cl)ccc43)COc3ccc(cc32)C(=O)NS1(=O)=O	–	–	in vivo efficacy relative to Reference Compound 1 in a tumor PD model [3]: superior in vivo efficacy
CO[C@@]1(CN2CCC3(CCO3)CC2)/C=C/C[C@H](C)[C@@H](C)S(=O)(=O)NC(=O)c2ccc3c(c2)N(C[C@@H]2CC[C@H]21)C[C@@]1(CCCc2cc(Cl)ccc21)CO3	304 nM	0.263 nM	–
CCO[C@]1(CN2CCC3(CCO3)CC2)/C=C/C[C@H](C)[C@@H](C)S(=O)(=O)NC(=O)c2ccc3c(c2)N(C[C@@H]2CC[C@H]21)C[C@@]1(CCCc2cc(Cl)ccc21)CO3	694 nM	0.465 nM	–
CO[C@]1(CN2CCN3CCOC[C@@H]3C2)/C=C/C[C@H](C)[C@@H](Cc2ccccc2)S(=O)(=O)NC(=O)c2ccc3c(c2)N(C[C@@H]2CC[C@H]21)C[C@@]1(CCCc2cc(Cl)ccc21)CO3	737 nM	–	–
C[C@@H]1[C@@H](C)CCCC(O)(C#CCN2CCOCC2)[C@@H]2CC[C@H]2CN2C[C@@]3(CCCc4cc(Cl)ccc43)COc3ccc(cc32)C(=O)NS1(=O)=O (stereo partly shown)	–	–	IC50 [1, 6]: 151 nM; IC50 [2, 7]: 0.348 nM
C[C@@H]1[C@@H](C)CCCC(O)(CN2CCN3CCNCC3C2)[C@@H]2CC[C@H]2CN2C[C@@]3(CCCc4cc(Cl)ccc43)COc3ccc(cc32)C(=O)NS1(=O)=O (stereo partly shown)	4980 nM	0.315 nM	–
COC1(CO)/C=C/C[C@H](C)C(Cc2ccccc2)S(=O)(=O)NC(=O)c2ccc3c(c2)N(C[C@@H]2CC[C@H]21)C[C@@]1(CCCc2cc(Cl)ccc21)CO3 (single isomer, unassigned)	–	–	IC50 [1, 6]: 117 nM; IC50 [2, 7]: 0.075 nM
